Experimental data from article PMC8495968, “Towards optimizing peptide-based inhibitors of protein–protein interactions: predictive saturation variation scanning (PreSaVS)” (RSC Chemical Biology, 2021).

Protein sequences, listed by entry. Tags and fused reporters are not part of them. Residues count along the entry.
SUMO-1 (Homo sapiens), P63165, UniProt P63165, 2-97: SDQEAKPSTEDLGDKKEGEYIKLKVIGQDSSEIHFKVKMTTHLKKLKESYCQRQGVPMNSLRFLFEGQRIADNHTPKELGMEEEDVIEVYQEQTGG

Biological target: SUMO-1 (Homo sapiens), P63165
Experiment: fluorescence anisotropy competition
Settings: modification not given

- IC50: 21.9 µM
B1: SIM2705–2717 2705-2717, P49792 (peptide)
chain: DNEKECIIVWEKK
